# Biological target: Sodium-dependent dopamine transporter (Rattus norvegicus, UniProt P23977)
# The chains behind the UniProt entries cited, without tags or fusion partners.
# UniProt P23977, whole entry: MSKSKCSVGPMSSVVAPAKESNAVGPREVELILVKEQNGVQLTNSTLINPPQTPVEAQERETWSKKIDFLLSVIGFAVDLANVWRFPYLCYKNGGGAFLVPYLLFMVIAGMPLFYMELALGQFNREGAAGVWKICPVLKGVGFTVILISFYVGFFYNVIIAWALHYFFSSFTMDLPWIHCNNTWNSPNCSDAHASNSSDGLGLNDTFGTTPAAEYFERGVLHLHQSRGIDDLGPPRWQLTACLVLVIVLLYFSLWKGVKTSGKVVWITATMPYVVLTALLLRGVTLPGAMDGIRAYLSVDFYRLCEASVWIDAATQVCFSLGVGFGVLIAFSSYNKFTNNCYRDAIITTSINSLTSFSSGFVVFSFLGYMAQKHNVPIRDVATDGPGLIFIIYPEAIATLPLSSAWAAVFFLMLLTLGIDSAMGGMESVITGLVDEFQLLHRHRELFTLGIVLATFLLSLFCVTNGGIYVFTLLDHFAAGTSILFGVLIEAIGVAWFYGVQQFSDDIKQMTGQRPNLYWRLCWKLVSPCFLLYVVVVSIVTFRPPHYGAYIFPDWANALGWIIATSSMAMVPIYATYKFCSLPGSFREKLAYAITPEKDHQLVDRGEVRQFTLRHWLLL
# Experiment: Inhibition of dopamine uptake in rat synaptosomal fraction
# Assay type: functional
structure (smiles),measurement,value
CN(C)CCCC1(c2ccc(F)cc2)OCc2cc(C#N)ccc21 (stereo unspecified) [CITALOPRAM],IC50,41 µM

# — ChEMBL document CHEMBL1122866, “3-Phenyl-1-indanamines. Potential antidepressant activity and potent inhibition of dopamine, norepinephrine, and serotonin uptake” (J Med Chem, 1985)
